From US20060063766A1, “Use of aryl- and heteroaryl-substituted tetrahydroisoquinolines to block reuptake of norepinephrine, dopamine, and serotonin” (priority 2004, published 2006)
Counter-ions that a name gives are not always drawn. Each block holds one compound with its values, some of them ahead of it.

By UniProt entry, the sequences of proteins in these tests, tags left out.
UniProt P23975, whole entry: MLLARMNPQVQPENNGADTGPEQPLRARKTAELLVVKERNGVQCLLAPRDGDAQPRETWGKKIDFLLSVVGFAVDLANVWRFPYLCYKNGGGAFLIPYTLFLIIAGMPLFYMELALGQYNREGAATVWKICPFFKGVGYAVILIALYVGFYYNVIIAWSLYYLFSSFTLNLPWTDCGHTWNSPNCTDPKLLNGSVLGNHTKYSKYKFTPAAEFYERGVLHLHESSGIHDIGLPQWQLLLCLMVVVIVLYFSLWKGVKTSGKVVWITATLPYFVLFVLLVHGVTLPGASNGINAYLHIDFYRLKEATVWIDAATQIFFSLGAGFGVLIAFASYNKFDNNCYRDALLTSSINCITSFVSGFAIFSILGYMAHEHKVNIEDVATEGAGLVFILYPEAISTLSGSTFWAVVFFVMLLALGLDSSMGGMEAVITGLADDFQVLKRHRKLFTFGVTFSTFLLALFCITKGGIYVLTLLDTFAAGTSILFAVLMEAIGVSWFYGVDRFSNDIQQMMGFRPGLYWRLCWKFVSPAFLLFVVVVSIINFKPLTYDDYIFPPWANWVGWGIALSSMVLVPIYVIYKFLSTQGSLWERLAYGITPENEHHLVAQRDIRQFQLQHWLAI
UniProt Q01959, whole entry, looked up: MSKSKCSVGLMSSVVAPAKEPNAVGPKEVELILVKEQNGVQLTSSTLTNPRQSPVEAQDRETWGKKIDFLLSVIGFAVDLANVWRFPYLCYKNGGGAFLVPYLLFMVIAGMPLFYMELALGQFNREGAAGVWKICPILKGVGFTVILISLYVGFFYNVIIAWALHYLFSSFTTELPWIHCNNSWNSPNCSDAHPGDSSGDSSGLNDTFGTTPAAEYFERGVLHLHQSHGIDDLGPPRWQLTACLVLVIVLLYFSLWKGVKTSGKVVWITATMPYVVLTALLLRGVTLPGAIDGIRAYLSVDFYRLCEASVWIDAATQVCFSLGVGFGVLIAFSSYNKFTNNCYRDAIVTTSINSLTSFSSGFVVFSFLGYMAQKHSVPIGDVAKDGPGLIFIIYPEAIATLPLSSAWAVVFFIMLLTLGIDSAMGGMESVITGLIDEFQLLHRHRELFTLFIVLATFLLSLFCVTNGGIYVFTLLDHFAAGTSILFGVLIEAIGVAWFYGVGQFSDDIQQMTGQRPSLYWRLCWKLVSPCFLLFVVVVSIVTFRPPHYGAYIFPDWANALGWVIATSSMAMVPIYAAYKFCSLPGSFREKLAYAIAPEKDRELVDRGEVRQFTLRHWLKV

How the values were obtained:
NET = NET (Homo sapiens, UniProt P23975); assay: Primary binding assay, NET binding ([3H] Nisoxetine); conditions: for inhibition at 0.1 µM: read-out: % inhibition at 100 nM concentration of test compound, NET
DAT = DAT (Homo sapiens, UniProt Q01959); assay: biochemical; type: binding

Compound: CN1Cc2ccccc2C(c2cc(Cl)c3[nH]ncc3c2)C1 (single isomer, unassigned; (-)) [Example 125, (−)-4-(7-chloro-1H-indazol-5-yl)-2-methyl-1,2,3,4-tetrahydoisoquinoline, maleate salt]
- Ki (NET): 2.6 nM

Compound: CN1Cc2cc(-c3cncnc3)ccc2C(c2cc3ccccc3s2)C1 (racemic) [Example 73, (±)-4-(benzo[b]thiophen-2-yl)-2-methyl-7-(pyrimidin-5-yl)-1,2,3,4-tetrahydroisoquinoline]
- inhibition at 0.1 µM (NET): 73%

- Ki (DAT): 35.4 nM
Compound: CN1Cc2cc(CN3CCOCC3)ccc2C(c2cc3ccccc3s2)C1 (single isomer, unassigned) (as salt: maleate)

Compound: CN1Cc2cc(-c3cnccn3)ccc2C(c2cc3ccccc3s2)C1 (racemic) [Example 71, (±)-4-(benzo[b]thiophen-2-yl)-2-methyl-7-(pyrazin-2-yl)-1,2,3,4-tetrahydroisoquinoline]
- inhibition at 0.1 µM (NET): 75%

Compound: COc1cccc2cc(C3CN(C)Cc4ccccc43)oc12 (single isomer, unassigned)
- Ki (NET): 22 nM

- Ki (DAT): 8.5 nM
Compound: CN1Cc2cc(-c3cccnn3)ccc2C(c2ccc3sccc3c2)C1 (single isomer, unassigned)

Compound: Cc1cccc2c1C(c1ccc3ccccc3c1)CN(C)C2 (stereo not shown) [Example 56, 2,5-dimethyl-4-(naphthalen-2-yl)-1,2,3,4-tetrahydroisoquinoline]
- Ki (NET): 29.3 nM
